From patent publication US20170305922A1, “CARM1 INHIBITORS AND USES THEREOF” (Epizyme, Inc., priority 2014, published 2017) come the findings set out here.

By UniProt entry, the sequences of proteins in these tests, tags left out. Residues count along the entry.
UniProt Q86X55, 1-585 isoform 1: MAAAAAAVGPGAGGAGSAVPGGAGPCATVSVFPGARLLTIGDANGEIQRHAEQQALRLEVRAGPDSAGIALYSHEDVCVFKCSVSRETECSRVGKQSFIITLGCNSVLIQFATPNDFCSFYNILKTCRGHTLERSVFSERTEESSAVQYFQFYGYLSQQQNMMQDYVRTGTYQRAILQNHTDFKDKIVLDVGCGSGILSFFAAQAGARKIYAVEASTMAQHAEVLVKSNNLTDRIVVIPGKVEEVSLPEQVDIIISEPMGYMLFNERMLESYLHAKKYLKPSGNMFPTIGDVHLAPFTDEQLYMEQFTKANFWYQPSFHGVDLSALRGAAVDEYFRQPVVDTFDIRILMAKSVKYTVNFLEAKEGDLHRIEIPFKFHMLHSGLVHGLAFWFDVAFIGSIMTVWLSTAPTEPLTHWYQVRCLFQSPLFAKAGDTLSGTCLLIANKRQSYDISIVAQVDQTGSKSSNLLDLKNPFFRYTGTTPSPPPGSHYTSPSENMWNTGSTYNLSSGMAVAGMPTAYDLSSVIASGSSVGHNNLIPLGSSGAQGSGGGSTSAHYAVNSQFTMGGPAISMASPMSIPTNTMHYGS

What is called IC50 is the concentration at which inhibition is half-maximal.

In one assay the target is Human CARM1 (PRMT4) (Homo sapiens, UniProt Q86X55). Nature of the assay: CARM1 enzyme assay on peptide substrates (3H-SAM Flashplate). The note with it: read-out: Biochem IC50; Biochemical assay; CARM1 0.25 nM, 3H-SAM 30 nM, peptide 250 nM.
Assay [1] has as its system asymmetric di-methyl PABP1 in RKO cells. Nature of the assay: RKO methylation assay: In Cell Western (ICW) for asymmetric di-methyl PABP1 (PABP1me2a). The note with it: read-out: Cellular IC50, Cellular-based (PABP1me2a) ICW (In Cell Western) assay, 48 hours. From the text: RKO adherent cells were purchased from ATCC (American Type Culture Collection), Manassas, Va., USA. DMEM/Glutamax medium, penicillin-streptomycin, heat inactivated fetal bovine serum, 0.05% trypsin and D-PBS were purchased from Life Technologies, Grand Island, N.Y., USA. Odyssey blocking buffer, 800CW goat anti-rabbit IgG (H+L) antibody, and Licor Odyssey infrared scanner were purchased from Licor Biosciences, Lincoln, Nebr., USA. Asymmetric di-methyl PABP1 antibody was purchased from Cell Signaling Technology, Danvers, Mass., USA. Methanol was purchased from VWR, Franklin, Mass., USA. 10% Tween 20 was purchased from KPL, Inc., Gaithersburg, Md., USA. Paraformaldehyde (PFA) was purchased from EM Sciences. DRAQ5 was purchased from Biostatus Limited, Leicestershire, UK.
RKO adherent cells were maintained in growth medium (DMEM/Glutamax medium supplemented with 10% v/v heat inactivated fetal bovine serum and 100 units/mL penicillin-streptomycin) and cultured at 37° C. under 5% CO2.
Cell treatment, In Cell Western (ICW) for detection of asymmetric di-methyl PABP1 and DNA content: RKO cells were seeded in assay medium at a concentration of 30,000 cells per mL to a poly-D-lysine coated 384 well culture plate (BD Biosciences 356697) with 50 μL per well. Compound (100 nL) from a 96-well source plate was added directly to 384 well cell plate. Plates were incubated at 37° C., 5% CO2 for 48 hours. After two days of incubation, plates were brought to room temperature outside of the incubator for ten minutes and blotted on paper towels to remove cell media. Cells were fixed for 20 minutes at room temperature by adding 50 ul of 8% PFA followed by aspiration of supernatant with the Biotek EL406 plate washer. Cells were then permeabilized by addition of 50 μL of ice cold 100% methanol directly to each well and incubated for 30 min at room temperature. After 30 min, plates were transferred to a Biotek EL406 plate washer and washed 2 times with 100 μL per well of wash buffer (1×PBS). Next 60 μL per well of Odyssey blocking buffer (Odyssey Buffer with 0.1% Tween 20 (v/v)) were added to each plate and incubated 1 hour at room temperature. Blocking buffer was removed and 20 μL per well of primary antibody was added (asymmetric-methyl PABP1) diluted 1:400 in Odyssey buffer with 0.1% Tween 20 (v/v)) and plates were incubated overnight (16 hours) at 4° C. Plates were washed 5 times with 100 μL per well of wash buffer. Next 20 μL per well of secondary antibody was added (1:800 800CW goat anti-rabbit IgG (H+L) antibody, 1:2000 DRAQ5 in Odyssey buffer with 0.1% Tween 20 (v/v)) and incubated for 1 hour at room temperature. The plates were washed 5 times with 100 μL per well wash buffer then 2 times with 100 μL per well of water. Plates were allowed to dry at room temperature then imaged on the Licor Odyssey machine which measures integrated intensity at 700 nm and 800 nm wavelengths. Both 700 and 800 channels were scanned.
First, the ratio for each well was determined by:
Each plate included fourteen control wells of DMSO only treatment (minimum inhibition) as well as fourteen control wells for maximum inhibition treated with 20 μM of a reference compound. The average of the ratio values for each control type was calculated and used to determine the percent […] for each test well in the plate. Reference compound was serially diluted three-fold in DMSO for a total of nine test concentrations, beginning at 20 μM.
Percent inhibition was determined and IC50 curves were generated using triplicate wells per concentration of compound.

Consider `CNC[C@@H](O)COc1ccc(Cl)c(-c2nc(-c3c(Cl)cnn3C)c(C)c(N3Cc4cnc(C5CC5)nc4C3)n2)c1`, for which the values for the IC50 (on Human CARM1 (PRMT4); in assay [1]) were 1.76 nM and 54.2 nM, respectively.
With `CNC[C@@H](O)COc1ccc(Cl)c(-c2nc(-c3c(C)noc3C)c(C)c(N3CC4CC3CN(CC(F)F)C(=O)O4)n2)c1` (single isomer, unassigned) [138], the IC50 at Human CARM1 (PRMT4) was found to be 4.6 nM; in assay [1], 581 nM.
Turning to `CNC[C@@H](O)COc1ccc(Cl)c(-c2nc(-c3c(Br)cnn3C)c(C)c(N3Cc4cnc(N5CC(OC)C5)nc4C3)n2)c1`, the IC50 at Human CARM1 (PRMT4) stood at 1.17 nM; in assay [1], 16.2 nM.
In the case of `CNC[C@@H](O)COc1ccc(Cl)c(-c2nc(-c3c(C)c(Br)nn3C)c(C)c(N3Cc4ccc(N5CCC5)nc4C3)n2)c1`, the values for the IC50 (on Human CARM1 (PRMT4); in assay [1]) were 1.2 nM and 30 nM, respectively.
On to `CNC[C@@H](O)COc1ccc(Cl)c(-c2nc(-c3c(C)c(Cl)nn3C)c(C)c(N3Cc4cnc(N5CC(OC)C5)nc4C3)n2)c1`, for which the IC50 on Human CARM1 (PRMT4) turned out to be 3 nM; in assay [1] it was 26 nM.
As to `CNC[C@@H](O)COc1ccc(Cl)c(-c2nc(-c3c(Br)cnn3C)c(C)c(N3CC4=C(CN(C(=O)OC)CC4)C3)n2)c1`, the 50% inhibitory concentration (IC50) stood at 4.76 nM at Human CARM1 (PRMT4) and 42.3 nM in assay [1].
`CCOc1ncc2c(n1)CN(c1nc(-c3cc(OC[C@H](O)CNC)ccc3Cl)nc(-c3c(Br)cnn3C)c1C)C2`: the IC50 at Human CARM1 (PRMT4) came out at 2 nM; in assay [1], 36.8 nM.
`CNC[C@@H](O)COc1ccc(Cl)c(-c2nc(-c3c(C)noc3C)c(C)c(N3CC4CC3CN(CC(F)F)C(=O)O4)n2)c1` (single isomer, unassigned) [132]: the IC50 is 6.6 nM on Human CARM1 (PRMT4) and 637 nM in assay [1].
Regarding `CNC[C@@H](O)COc1ccc(Cl)c(-c2nc(-c3c(C)noc3C)c(C)c(N3C4CCC3c3ncccc34)n2)c1` (stereo partly shown), the IC50 at Human CARM1 (PRMT4) was 6 nM; in assay [1], 1400 nM.
As for `CNC[C@@H](O)COc1ccc(Cl)c(-c2nc(-c3c(C)c(Br)nn3C)c(C)c(N3Cc4cccnc4C3)n2)c1`, the IC50 on Human CARM1 (PRMT4) came to 0.8 nM; in assay [1], 21 nM.
As to `CNC[C@@H](O)COc1ccc(Cl)c(-c2nc(-c3c(Br)cnn3C)c(C)c(N3Cc4cccnc4C3)n2)c1`, the IC50 turned out to be 1.2 nM at Human CARM1 (PRMT4) and 71 nM in assay [1].
